{"source": "patent US5468854A", "about": "“Characterization of specific drug receptors with fluorescent ligands” (Pharmaceutical Discovery Corporation, priority 1993, dated 1995)", "test_system": "benzodiazepine receptors", "test": "BD 623 fluorescence quenching/dequenching assay in brain membranes", "type": "binding, rat (Sprague-Dawley)", "settings": "large excess of benzodiazepine receptor ligands (flurazepam 100 μM); non-benzodiazepine receptor ligands 10 μM", "data": [{"smiles": "CC(C)(N)Cc1ccccc1", "note": "[phenteramine]", "values": [{"measurement": "dequenching of BD 623 fluorescence", "value": "did not effect a dequenching of fluorescence"}]}]}
